ChEMBL document CHEMBL5131543, “Studying Lipophilicity Trends of Phosphorus Compounds by 31P-NMR Spectroscopy: A Powerful Tool for the Design of P-Containing Drugs” (J Med Chem, 2022)

Test: Lipophilicity, logP of compound at pH 7.4 by HPLC analysis
Details: buffer

SMILES: CCOP(C)(=S)OCC
- logP: 2.08
